What was measured:
[1] = test system: metastatic melanoma with ALK^ATI expression; experiment: Compassionate use of crizotinib in a patient with metastatic melanoma with ALK^ATI expression; assay type: in vivo, human; conditions: one patient (MM-382); within 6 weeks of therapy
[2] = test system: NIH-3T3 grafted tumors expressing ALK^WT; experiment: In vivo drug treatment of NIH-3T3 grafted tumors expressing ALK^WT in SCID mice; conditions: 100 mg/kg/day, bioluminescence
[3] = test system: NIH-3T3 grafted tumors expressing ALK^F1174L; experiment: In vivo drug treatment of NIH-3T3 grafted tumors expressing ALK^F1174L in SCID mice; conditions: 100 mg/kg/day, bioluminescence
[4] = test system: NIH-3T3 grafted tumors expressing EML4-ALK; experiment: In vivo drug treatment of NIH-3T3 grafted tumors expressing EML4-ALK in SCID mice; conditions: 100 mg/kg/day, bioluminescence

## C[C@@H](Oc1cc(-c2cnn(C3CCNCC3)c2)cnc1N)c1c(Cl)ccc(F)c1Cl [crizotinib]
[1]
  symptomatic response: marked symptomatic improvement
  tumor response (CT): tumor shrinkage
[2]
  sensitivity to crizotinib in vivo: sensitivity
[3]
  sensitivity to crizotinib in vivo: sensitivity
[4]
  sensitivity to crizotinib in vivo: sensitivity
